From patent US20060281897A1, “Potentialization of the activation of high molecular weight prodrugs” (priority 2003, published 2006) come the findings set out here.

The subject of one series is MCF-7/6 cells. As to the kind of experiment: Cytotoxicity test (WST-1 cell viability). The following applies: 48 hours incubation + 24 hours post-incubation. A general note: Tetrazolium assays rely on reduction of a dye to a coloured formazan, in cell work by metabolically active cells.
Series [1] concerns LS-174T human colorectal adenocarcinomas xenografts. The following applies: 80 μmol/kg, 30 minute i.v. infusion; for AUC0-24hrs Leu-doxorubicin in tumor / AUC0-24hrs doxorubicin in tumor: LS-174T tumors.
The conditions of series [2]: 24-hour incubation at 37° C. in culture medium containing 10% fetal calf serum, 20 μM.

In the case of “PEG2000-(DSer)-beta-Ala-Leu-Ala-Leu-doxorubicin [PEG2000-DSer-beta-ALAL-Dox]”, the cytotoxicity result in the series with MCF-7/6 cells was “not cytotoxic”.

For “PEG30,000-Ala-Leu-Ala-Leu-Doxorubicin [PEG30,000-ALAL-Dox]”, in series [1], the “AUC0-24hrs Leu-doxorubicin in tumor” value worked out at 13.26 UNITS and the “AUC0-24hrs doxorubicin in tumor” value worked out at 1.56 UNITS.

As to “PEG2000-(DSer)4-beta-Ala-Leu-Ala-Leu-doxorubicin [PEG2000-(DSer)4-beta-ALAL-Dox]”, in series [2], the stability result is “stable”.

On to “PEG30,000-(DSer)8-Ala-Leu-Ala-Leu-Doxorubicin [PEG30,000-(DSer)8-ALAL-Dox]”, for which, in series [1], the “AUC0-24hrs Leu-doxorubicin in tumor” value is listed as 21.10 UNITS and the “AUC0-24hrs doxorubicin in tumor” value is on record as 3.90 UNITS. In addition, the “time after infusion at which Leu-doxorubicin and doxorubicin are detected in tumor” value in series [1] (sampling 1, 3, 6, 24 hours) was “one hour following the infusion”.

Take “PEG2000-beta-Ala-Leu-Ala-Leu-doxorubicin [PEG2000-beta-ALAL-Dox]”: in series [2], the stability result is “stable”.
